# Results reported in paper PMC3666173 (Basic research in cardiology, 2012).
# Sequences of proteins named here, by UniProt entry; tags and fusion partners are left off. Residues count along the entry.
# UniProt P17302, 255-382: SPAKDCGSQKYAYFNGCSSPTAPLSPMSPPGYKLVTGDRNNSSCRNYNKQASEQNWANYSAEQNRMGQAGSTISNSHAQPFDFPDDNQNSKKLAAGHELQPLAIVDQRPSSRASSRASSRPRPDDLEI
# Target: Cx43 CT tail (AAs 255–382) (Homo sapiens, UniProt P17302)
# Test: SPR binding of purified Cx43 CT tail to immobilized biotin-peptides
# Settings: Cx43CT 7 μM, maximal response, n = 3
structure (smiles),measurement,value
CC[C@H](C)[C@H](NC(=O)CNC(=O)[C@H](Cc1ccc(O)cc1)NC(=O)[C@H](CCCCN)NC(=O)[C@H](Cc1ccccc1)NC(=O)[C@H](CCCCN)NC(=O)[C@H](CCCCN)NC(=O)[C@@H](NC(=O)[C@H](CCC(=O)O)NC(=O)[C@@H](NC(=O)[C@H](CCC(N)=O)NC(=O)[C@H](CCCCN)NC(=O)[C@H](CC(C)C)NC(=O)[C@H](Cc1c[nH]cn1)NC(=O)[C@H](CCSC)NC(=O)[C@H](CC(=O)O)NC(=O)[C@@H](NC(=O)[C@H](CC(N)=O)NC(=O)[C@H](C)NC(=O)CNC(=O)[C@@H](N)CC(=O)O)C(C)C)[C@@H](C)CC)[C@@H](C)CC)C(=O)N[C@@H](CCC(=O)O)C(=O)N[C@@H](CCC(=O)O)C(=O)N[C@@H](Cc1c[nH]cn1)C(=O)NCC(=O)N[C@@H](CCCCN)C(=O)O [L2],association with CT tail,clear association
